# Reference: ChEMBL document CHEMBL5715957, “D4 dopamine receptor high-resolution structures enable the discovery of selective agonists” (2017)
# By UniProt entry, the sequences of proteins in these tests, tags left out.
# UniProt P21917, whole entry, looked up: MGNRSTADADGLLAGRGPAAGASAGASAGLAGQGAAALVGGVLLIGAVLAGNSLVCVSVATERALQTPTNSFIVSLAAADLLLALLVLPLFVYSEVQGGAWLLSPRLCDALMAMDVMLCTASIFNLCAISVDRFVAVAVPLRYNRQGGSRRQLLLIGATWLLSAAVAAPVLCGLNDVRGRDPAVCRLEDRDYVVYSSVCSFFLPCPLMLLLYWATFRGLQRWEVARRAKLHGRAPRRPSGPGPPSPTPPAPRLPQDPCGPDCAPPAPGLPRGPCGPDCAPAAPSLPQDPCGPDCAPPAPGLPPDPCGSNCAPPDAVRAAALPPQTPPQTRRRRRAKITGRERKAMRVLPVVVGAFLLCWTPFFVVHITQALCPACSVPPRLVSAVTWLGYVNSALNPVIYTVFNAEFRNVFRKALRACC
# UniProt P14416, whole entry, looked up: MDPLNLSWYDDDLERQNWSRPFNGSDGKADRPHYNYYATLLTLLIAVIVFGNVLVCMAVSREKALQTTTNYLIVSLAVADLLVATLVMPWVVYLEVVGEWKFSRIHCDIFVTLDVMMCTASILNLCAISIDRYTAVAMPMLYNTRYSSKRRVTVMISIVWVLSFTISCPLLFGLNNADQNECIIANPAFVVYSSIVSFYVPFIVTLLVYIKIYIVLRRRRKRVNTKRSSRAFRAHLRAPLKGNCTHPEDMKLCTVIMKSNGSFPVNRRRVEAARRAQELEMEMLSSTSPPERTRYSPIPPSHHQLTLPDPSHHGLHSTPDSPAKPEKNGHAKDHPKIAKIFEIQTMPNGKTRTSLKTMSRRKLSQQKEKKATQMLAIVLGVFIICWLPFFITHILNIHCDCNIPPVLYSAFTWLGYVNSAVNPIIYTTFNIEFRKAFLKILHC
# UniProt P35462, whole entry, looked up: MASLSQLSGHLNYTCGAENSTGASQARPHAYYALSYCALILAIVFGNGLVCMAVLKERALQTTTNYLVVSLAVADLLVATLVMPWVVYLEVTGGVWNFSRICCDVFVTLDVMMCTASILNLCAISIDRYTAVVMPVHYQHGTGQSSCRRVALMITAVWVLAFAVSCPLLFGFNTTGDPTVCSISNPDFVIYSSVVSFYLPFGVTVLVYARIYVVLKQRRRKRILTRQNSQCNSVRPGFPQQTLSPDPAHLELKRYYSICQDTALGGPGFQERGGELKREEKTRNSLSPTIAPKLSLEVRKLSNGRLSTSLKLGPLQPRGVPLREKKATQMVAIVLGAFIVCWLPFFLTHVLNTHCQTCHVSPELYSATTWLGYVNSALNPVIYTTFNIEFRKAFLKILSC
# Experiments:
# D(4) dopamine receptor [1] = target: T1, D(4) dopamine receptor (Homo sapiens, UniProt P21917); experiment: Displacement of 3H-N-Methylspiperone from DRD4 in human HEK293T cells membrane assessed as inhibition constant incubated for 2 hrs by radioligand competition assay
# D(2) dopamine receptor = D(2) dopamine receptor (Homo sapiens, UniProt P14416); experiment: Displacement of 3H-N-Methylspiperone from DRD2 in human HEK293T cells membrane assessed as inhibition constant incubated for 2 hrs by radioligand competition assay
# D(3) dopamine receptor = D(3) dopamine receptor (Homo sapiens, UniProt P35462); experiment: Displacement of 3H-N-Methylspiperone from DRD3 in human HEK293T cells membrane assessed as inhibition constant incubated for 2 hrs by radioligand competition assay
# [2] = Displacement of 3H-N-Methylspiperone from DRD4 L3.28F mutant in human HEK293T cells membrane assessed as inhibition constant incubated for 2 hrs by radioligand competition assay
# [3] = Displacement of 3H-N-Methylspiperone from DRD2 F3.28L mutant in human HEK293T cells membrane assessed as inhibition constant incubated for 2 hrs by radioligand competition assay
# [4] = Displacement of 3H-N-Methylspiperone from DRD2 V2.61F mutant in human HEK293T cells membrane assessed as inhibition constant incubated for 2 hrs by radioligand competition assay
# [5] = Displacement of 3H-N-Methylspiperone from DRD2 V2.61F / F3.28L mutant in human HEK293T cells membrane assessed as inhibition constant incubated for 2 hrs by radioligand competition assay
# [6] = Displacement of 3H-N-Methylspiperone from DRD4 F2.61V / L3.28F mutant in human HEK293T cells membrane assessed as inhibition constant incubated for 2 hrs by radioligand competition assay
# [7] = Bios factor, ratio of agonist activity at DRD4-mediated arrestin signaling to agonist activity at DRD4-mediated G protein signaling in human HEK293T cells relative to quinpirole; conditions: condition cognitive impairment; condition parkinson disease; condition schizophrenia
# D(4) dopamine receptor [8] = target: T1, D(4) dopamine receptor; experiment: Agonist activity at DRD4 expressed in human HEK293T cells assessed as cAMP accumulation incubated for 15 mins by split-luciferase-based biosensor analysis
# [9] = Displacement of 3H-N-Methylspiperone from DRD4 F2.61V mutant in human HEK293T cells membrane assessed as inhibition constant incubated for 2 hrs by radioligand competition assay
# [10] = Agonist activity at DRD3 Y3657.35V mutant expressed in human HEK293T cells assessed as Galphai/o constitutive activity at 1 uM incubated for 15 mins in presence of pertussis toxin and isoproterenol by split-luciferase-based cAMP biosensor analysis; conditions: condition cognitive impairment, condition parkinson disease, condition schizophrenia, 0.25 h
Compound,Ki (D(4) dopamine receptor [1]),Ki (D(2) dopamine receptor),Ki (D(3) dopamine receptor),other results
CCCn1cc(CNCc2cc(=O)c3cc(F)ccc3[nH]2)cn1,1100 nM,> 10000 nM,> 10000 nM,–
Cc1n[nH]c(C)c1CCCNCc1cc(=O)c2cc(F)ccc2[nH]1,800 nM,> 10000 nM,> 10000 nM,–
Cc1ccc2nc(CNCCCN3CCCC3=O)cc(O)c2c1,100 nM,> 10000 nM,> 10000 nM,–
Cc1ccsc1CN(C)Cc1cc(=O)n2ccccc2n1,3000 nM,> 10000 nM,3590 nM,–
O=c1cc(CNCCc2csc(-c3ncccn3)n2)[nH]c2ccc(F)cc12,1800 nM,> 10000 nM,> 10000 nM,–
CN1CN(c2ccccc2)C2(CCN(CCCC(=O)c3ccc(F)cc3)CC2)C1=O,–,–,–,Ki [2]: 9.94 nM; pKi [2]: 8.02; Ki [3]: 0.58 nM; pKi [3]: 9.24; Ki [4]: 0.63 nM; pKi [4]: 9.2; Ki [5]: 0.79 nM; pKi [5]: 9.18; Ki [6]: 2.67 nM; pKi [6]: 8.6
O=c1cc(CN[C@@H]2CCSC2)[nH]c2ccc(F)cc12,> 10000 nM,> 10000 nM,> 10000 nM,–
O=c1cc(CNCCSc2cn[nH]n2)[nH]c2ccc(F)cc12,> 10000 nM,> 10000 nM,> 10000 nM,–
Cc1csc(CCCNCc2cc(=O)c3cc(F)ccc3[nH]2)n1,50 nM,> 10000 nM,> 10000 nM,Ratio [7]: 20; EC50 (D(4) dopamine receptor [8]): 33.4 nM; Ki [6]: > 10000 nM
CN(CCCc1nccn1C)Cc1cc(O)c2cccc(Cl)c2n1,6100 nM,> 10000 nM,> 10000 nM,–
O=c1cc(CNC[C@@H](O)c2ccccn2)[nH]c2ccc(F)cc12,> 10000 nM,> 10000 nM,> 10000 nM,–
Cn1nccc1CNCCNc1cccc(Br)c1,840 nM,> 10000 nM,1900 nM,EC50 (D(4) dopamine receptor [8]): 226 nM; Ki [6]: > 10000 nM
NC(=O)[C@H](Cc1ccccc1)NCc1cc(=O)c2cc(F)ccc2[nH]1,> 10000 nM,> 10000 nM,> 10000 nM,–
CCn1nc(C)c(CCNCc2cc(=O)c3cc(C)ccc3[nH]2)c1C,> 10000 nM,> 10000 nM,> 10000 nM,–
CCc1nc(CCNCc2cc(=O)c3cc(F)ccc3[nH]2)cs1,1600 nM,> 10000 nM,> 10000 nM,–
O=c1cc(CNC[C@H]2CCOC2)[nH]c2c(F)cccc12,1920 nM,> 10000 nM,> 10000 nM,–
Cc1c(C2CCN(CCc3ccccc3)CC2)noc1-c1ccc(Cl)cc1,–,–,–,Ki [2]: 292 nM; pKi [2]: 6.54; Ki [3]: 1430 nM; Ki [4]: 381 nM; pKi [4]: 6.44; Ki [5]: 436 nM; pKi [5]: 6.37; Ki [6]: 162 nM; pKi [6]: 6.81; Ki [9]: 59.9 nM; pKi [9]: 7.26
CCCC[C@@H](NCc1cc(=O)c2cc(F)ccc2[nH]1)C(N)=O,> 10000 nM,> 10000 nM,> 10000 nM,–
Cc1ccc2nc(CNCCCN3CCOCC3)cc(O)c2c1,> 10000 nM,> 10000 nM,> 10000 nM,–
Cc1ccc2[nH]c(CNCc3csc(-c4ncccn4)n3)cc(=O)c2c1,> 10000 nM,> 10000 nM,> 10000 nM,–
Cc1ccc2[nH]c(CNCCSc3nc(C)n[nH]3)cc(=O)c2c1,1200 nM,> 10000 nM,> 10000 nM,–
Cc1ccc2nc(CNCCCn3ccnc3)cc(O)c2c1,600 nM,> 10000 nM,> 10000 nM,–
Cc1ccc2[nH]c(CNCCC[C@H]3CCOC3)cc(=O)c2c1,80 nM,> 10000 nM,> 10000 nM,Ratio [7]: 7.8; EC50 (D(4) dopamine receptor [8]): 68.3 nM; Ki [6]: > 10000 nM
CCc1cc(Cl)c(OC)c(C(=O)NC[C@@H]2CCCN2CC)c1O,–,–,–,Activity [10]: 1640 fmol/mg
Cc1cccc(C(=O)NCN2CCN(c3ccccc3C#N)CC2)c1,–,6480 nM,–,–
O=c1cc(CNCCCN2CCCC[C@H]2CO)[nH]c2ccc(F)cc12,> 10000 nM,> 10000 nM,> 10000 nM,–
COc1ccccc1N1CCN(CCN(C(=O)C2CCCCC2)c2ccccn2)CC1,–,–,–,Ratio [7]: 1.3

Compound,Ki (D(4) dopamine receptor [1]),Ki (D(2) dopamine receptor),Ki (D(3) dopamine receptor),other results
CC(C)c1csc(CCNCc2cc(=O)c3cc(C(N)=O)ccc3[nH]2)n1,2600 nM,> 10000 nM,> 10000 nM,–
O=c1cc(CNCCc2nc3c(s2)CCC3)[nH]c2ccc(F)cc12,1100 nM,> 10000 nM,> 10000 nM,–
Cc1ccc2nc(CN[C@H](c3cccs3)C3CC3)cc(=O)n2c1,700 nM,> 10000 nM,4000 nM,–
Cc1nc(CCNCc2cc(=O)c3cc(F)ccc3[nH]2)cc(=O)[nH]1,> 10000 nM,> 10000 nM,> 10000 nM,–
O=c1cc(CNCC2(O)CCCCC2)[nH]c2ccc(F)cc12,7400 nM,> 10000 nM,> 10000 nM,–
Cc1n[nH]c(SCCNCc2cc(=O)c3cc(F)ccc3[nH]2)n1,> 10000 nM,> 10000 nM,> 10000 nM,–
CNc1cc(OC)c(C(=O)NC2CCN(Cc3ccccc3)C2C)cc1Cl (stereo not given),–,–,–,Ki [2]: 7.15 nM; pKi [2]: 8.15; Ki [4]: 0.29 nM; pKi [4]: 9.54; Ki [5]: 0.38 nM; pKi [5]: 9.44; Ki [6]: 6.27 nM; pKi [6]: 8.21; Ki [9]: 5.24 nM; pKi [9]: 8.35
Oc1cc(CNCCc2nccs2)nc2c(F)cccc12,6700 nM,> 10000 nM,> 10000 nM,–
Cc1ncc(CN2CC=C(c3ccccc3)CC2)c(N)n1,43.7 nM,–,–,Ratio [7]: 1.1; pKi (D(4) dopamine receptor [1]): 7.37; Ki [2]: 806 nM; pKi [2]: 6.1; Ki [3]: 1860 nM; pKi [3]: 5.75; Ki [4]: 5260 nM; pKi [4]: 5.35; Ki [5]: 376 nM; pKi [5]: 6.44; Ki [6]: 6820 nM; pKi [6]: 5.2; Ki [9]: 4290 nM; pKi [9]: 5.37
C[C@@H](Cc1cncs1)NCc1cc(=O)c2cc(F)ccc2[nH]1,5900 nM,> 10000 nM,> 10000 nM,–
CC(C)C[C@H](CO)NCc1cc(=O)c2cc(F)ccc2[nH]1,> 10000 nM,> 10000 nM,> 10000 nM,–
CCc1nccn1CCCNCc1cc(=O)c2cc(C)ccc2[nH]1,> 10000 nM,> 10000 nM,> 10000 nM,–
O=c1cc(CNCCCn2ccnn2)[nH]c2ccc(F)cc12,> 10000 nM,> 10000 nM,> 10000 nM,–
O=c1cc(CN[C@@H]2COC3(CCCC3)C2)[nH]c2ccc(F)cc12,> 10000 nM,> 10000 nM,> 10000 nM,–
O=c1cc(CNCCCc2nnc3ccccn23)[nH]c2ccc(F)cc12,2000 nM,> 10000 nM,> 10000 nM,–
Clc1ccc(N2CCN(Cc3c[nH]c4ncccc34)CC2)cc1,–,9110 nM,–,Ki [2]: 78.1 nM; pKi [2]: 7.11; Ki [3]: 751 nM; pKi [3]: 6.13; Ki [4]: 339 nM; pKi [4]: 6.47; Ki [5]: 154 nM; pKi [5]: 6.82; Ki [6]: 259 nM; pKi [6]: 6.59; Ki [9]: 289 nM; pKi [9]: 6.55
c1ccc(N2CCN(Cc3nc4ccccc4[nH]3)CC2)nc1,–,–,–,Ratio [7]: 1.3
Cc1ccc2[nH]c(CNCC[C@@H]3CCCCO3)cc(=O)c2c1,380 nM,> 10000 nM,> 10000 nM,–
CO[C@H](CNCc1cc(=O)c2cc(F)ccc2[nH]1)c1cccs1,> 10000 nM,> 10000 nM,> 10000 nM,–
c1ccc(-c2nc(CN3CCN(c4ncccn4)CC3)c[nH]2)cc1,–,–,–,Ki [2]: 128 nM; pKi [2]: 6.89; Ki [3]: 1870 nM; pKi [3]: 5.74; Ki [4]: 394 nM; pKi [4]: 6.41; Ki [5]: 579 nM; pKi [5]: 6.24; Ki [6]: 280 nM; pKi [6]: 6.56; Ki [9]: 332 nM; pKi [9]: 6.48
Cc1ccc2[nH]c(CNCCc3c(C)n[nH]c3C)cc(=O)c2c1,> 10000 nM,> 10000 nM,> 10000 nM,–
O=c1cc(CNC[C@@H](CO)Cc2ccsc2)[nH]c2ccc(F)cc12,1380 nM,> 10000 nM,> 10000 nM,EC50 (D(4) dopamine receptor [8]): 213 nM; Ki [6]: > 10000 nM
Fc1ccc(N2CCN(CCC3OCCc4ccccc43)CC2)cc1 (stereo not given),11 nM,1640 nM,–,Ki [2]: 326 nM; pKi [2]: 6.5; Ki [3]: 711 nM; pKi [3]: 6.15; Ki [4]: 525 nM; pKi [4]: 6.3; Ki [5]: 124 nM; pKi [5]: 6.91; Ki [6]: 218 nM; pKi [6]: 6.68; Ki [9]: 31.4 nM; pKi [9]: 7.5
Cc1ccc2[nH]c(CNCCc3nc(-c4cccnc4)n[nH]3)cc(=O)c2c1,> 10000 nM,> 10000 nM,> 10000 nM,–
O=c1cc(CNC[C@@H](O)c2ccccc2)[nH]c2ccc(F)cc12,> 10000 nM,> 10000 nM,> 10000 nM,–
O=c1cc(CNCCCOc2cccnc2)[nH]c2ccc(F)cc12,–,> 10000 nM,> 10000 nM,–
NCCc1ccc(O)c(O)c1,–,–,–,Ki [2]: 172 nM; pKi [2]: 6.77; Ki [5]: 1290 nM; pKi [5]: 5.89; pKi [6]: 6.95; pKi [9]: 6.58
